This passage reports Kd results from article PMC11093982, “Structural and mechanistic insights into Quinolone Synthase to address its functional promiscuity” (Communications Biology, 2024).

Protein sequences, listed by entry. Tags and fused reporters are not part of them.
UniProt M1HE54, entry or part of it: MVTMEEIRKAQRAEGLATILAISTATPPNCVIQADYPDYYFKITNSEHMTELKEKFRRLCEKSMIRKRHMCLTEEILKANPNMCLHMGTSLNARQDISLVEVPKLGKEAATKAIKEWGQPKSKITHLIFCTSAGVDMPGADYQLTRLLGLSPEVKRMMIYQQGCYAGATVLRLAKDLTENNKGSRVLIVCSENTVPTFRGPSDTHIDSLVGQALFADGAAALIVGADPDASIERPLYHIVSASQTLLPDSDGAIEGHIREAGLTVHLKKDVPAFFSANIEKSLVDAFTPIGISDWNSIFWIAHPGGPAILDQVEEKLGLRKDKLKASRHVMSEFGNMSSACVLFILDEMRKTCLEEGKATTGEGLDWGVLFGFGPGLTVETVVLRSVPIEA

For the experiment, the target named is AmQNS (quinolone synthase) (Aegle marmelos, UniProt M1HE54). Put plainly: Surface plasmon resonance (SPR) AmQNS-substrate interaction studies. The format is binding. The source says: ProteOn XPR array system[21] and ‘GLM’ sensor chip was used for the SPR interaction studies. […] Here, amine coupling works, where the amine groups present in the AmQNS covalently bind to the chemically activated carboxyl groups of the dextran molecules. Channel L3 and L4 were used for immobilization of protein while L2 was used as reference. The extent of non-specific interactions was eliminated or reduced by optimizing the buffer conditions. […] N-methylanthraniloyl-CoA was purchased from TransMIT (Plant MetaChem, www.plantmetachem.com), whereas all other substrates were purchased from Sigma-Aldrich (www.sigmaaldrich.com).
Following AmQNS immobilization and its stability screening, all binding studies were done at 30 °C. […] The sensogram was prepared by processing the data (after subtraction of L2 responses (reference channel). Baseline drift due to the bulk refractive index change, non-specific binding, matrix effects and injection noise were also corrected using the reference spots. Further, the responses obtained from the AmQNS-small molecular interactions at different concentrations were fitted using the Langmuir 1:1 biomolecular interaction model using the ProteOn Manager software version 3.1.0.6 (Bio-Rad, USA). Equilibrium dissociation constants (KD) were calculated from the ratio of the association and dissociation rates.
Background: Surface plasmon resonance follows binding to a sensor surface in real time, without labels.

Structures are written as SMILES.

By Kd is commonly meant a measure of binding affinity in units of concentration. A higher Kd goes with weaker binding. On to `CCCCCCCCCCCCCC(=O)SCCNC(=O)CCNC(=O)[C@H](O)C(C)(C)COP(=O)(O)OP(=O)(O)OC[C@H]1O[C@@H](n2cnc3c(N)ncnc32)[C@H](O)[C@@H]1OP(=O)(O)O` [Myristoyl-CoA], for which binding was characterised by a dissociation constant (Kd) of 310 nM.
